{"source": "patent US9669049B2", "about": "“Compositions comprising gamma retrovirus vectors and methods of treating proliferative disorders” (Tocagen Inc., priority 2010, dated 2017)", "origin": "cited, not measured here", "conditions": "on the basis of reversible thrombocytopenia, cited from earlier work", "note": "Read-outs that look alike come from different tables or passages of the source."}
{"molecule": "N#CC[C@H](C1CCCC1)n1cc(-c2ncnc3[nH]ccc23)cn1", "note": "[Ruxolitinib]", "values": [{"measurement": "maximum tolerated doses", "setting": "once daily", "value": "or 100 mg once"}, {"measurement": "maximum tolerated doses", "setting": "twice daily", "value": 25, "unit": "mg twice daily"}]}
